Literature values, collected in US12428399B2, “Non-hygroscopic crystalline salts of a pyrazole compound, and pharmaceutical compositions and use thereof” (Yissum Research Development Company of the Hebrew …, priority 2019, dated 2025).

By UniProt entry, the sequences of proteins in these tests, tags left out.
UniProt P50613, whole entry, species assumed: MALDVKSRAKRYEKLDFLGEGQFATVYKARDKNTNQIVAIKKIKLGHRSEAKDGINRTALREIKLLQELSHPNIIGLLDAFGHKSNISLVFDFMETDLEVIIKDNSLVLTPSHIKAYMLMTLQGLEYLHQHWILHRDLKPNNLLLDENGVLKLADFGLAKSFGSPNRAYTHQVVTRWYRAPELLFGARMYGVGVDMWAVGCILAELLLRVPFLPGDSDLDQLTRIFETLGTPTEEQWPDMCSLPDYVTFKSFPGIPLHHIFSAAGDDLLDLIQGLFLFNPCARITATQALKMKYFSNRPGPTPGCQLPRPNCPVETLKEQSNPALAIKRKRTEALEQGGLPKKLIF
UniProt P50750, whole entry, species assumed: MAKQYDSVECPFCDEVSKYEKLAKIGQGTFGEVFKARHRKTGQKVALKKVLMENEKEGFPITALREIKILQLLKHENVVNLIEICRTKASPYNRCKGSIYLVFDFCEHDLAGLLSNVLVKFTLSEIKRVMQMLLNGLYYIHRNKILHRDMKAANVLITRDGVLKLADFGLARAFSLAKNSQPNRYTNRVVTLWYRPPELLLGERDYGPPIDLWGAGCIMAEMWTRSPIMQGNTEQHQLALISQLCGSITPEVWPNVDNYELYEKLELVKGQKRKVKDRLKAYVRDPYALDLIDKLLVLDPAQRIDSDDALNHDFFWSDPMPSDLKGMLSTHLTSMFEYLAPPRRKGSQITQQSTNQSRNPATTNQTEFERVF

Assays:
[1] = molecular target: CDK7 (Homo sapiens, UniProt P50613); details: cited from earlier work
[2] = molecular target: CDK9 (Homo sapiens, UniProt P50750); details: cited from earlier work

Compound: Cn1ncc(-c2nc(N[C@H]3CC[C@H](N)CC3)ncc2Cl)c1CC1CC1 [the Compound, (1r,4r)-N^1-(5-chloro-4-(5-(cyclopropylmethyl)-1-methyl-1H-pyrazol-4-yl)pyrimidin-2-yl)cyclohexane-1,4-diamine]
- CDK7 inhibition [1]: inhibitor
- CDK9 inhibition [2]: inhibitor
